Measured values published in patent US7384912B2, “Treatment of bone disorders with skeletal anabolic drugs” (Osteotrophin, LLC, priority 2002, dated 2008).
Marks after values point to notes of the source that are not given here.

Tested on: ovariectomized (OVX) rats
Test: Biomechanical measures of strength in ovariectomized rats
Assay type: in vivo, rat
Conditions: 40 μg/kg/day s.c. once daily, 90 days

In the case of hPTH-(1-34), the “Mid-Femur Young's Modulus (E)” value is reported as 10.0 ± 0.2^c Gpa.
